System: Shef-1 hESCs
Assay: Alternative BMP pathway activators, MITF expression (immunostaining, qPCR)
Format: cell-based, human
Conditions: Day 13; BMPs Day 6-9: 50-200 ng/ml BMP4/7 heterodimer, 200 ng/ml BMP4, 300 ng/ml BMP7, 100 ng/ml BMP2/6
Experimental: Shef-1 hESCs were seeded onto Matrigel coated 96-well plates at a density of 125000 cells/cm^2. […] On Day 6, 50-200 ng/ml BMP4/7 heterodimer or 200 ng/ml BMP4, 300 ng/ml BMP7, 100 ng/ml BMP2/6 were added for a period of 3 days. On Day 9, BMPs were withdrawn and cells maintained in DMEM KSRXF alone for 4 days. On Day 13, MITF expression was tested by Immunostaining and qPCR analysis.

B1: BMP2/6: BMP2/6 heterodimer, BMP pathway activator (protein, UniProt P12643 283-396; P22004 375-513, looked up)
Bone morphogenetic protein 2: QAKHKQRKRLKSSCKRHPLYVDFSDVGWNDWIVAPPGYHAFYCHGECPFPLADHLNSTNHAIVQTLVNSVNSKIPKACCVPTELSAISMLYLDENEKVVLKNYQDMVVEGCGCR
Bone morphogenetic protein 6: SASSRRRQQSRNRSTQSQDVARVSSASDYNSSELKTACRKHELYVSFQDLGWQDWIIAPKGYAANYCDGECSFPLNAHMNATNHAIVQTLVHLMNPEYVPKPCCAPTKLNAISVLYFDDNSNVILKKYRNMVVRACGCH
modifications: heterodimer
- MITF expression (immunostaining and qPCR): induced expression of MITF to a similar level

From patent US20150159134A1, “METHOD FOR PRODUCING RETINAL PIGMENT EPITHELIAL CELLS” (PFIZER LIMITED, priority 2013, published 2015)
